# Values of other authors as cited in publication PMC8071534, “Discovery of Potential, Dual-Active Histamine H3 Receptor Ligands with Combined Antioxidant Properties” (Molecules, 2021).
# Target: hH3R
# Set-up: method as in PMID 30957954, PMID 31362197, PMID 21615387, PMID 28861918
# Settings: reference ligands, Figure 1; cited from earlier work
structure (smiles),measurement,value
"Clc1ccc(CCCOCCCN2CCCCC2)cc1 [Pitolisant, pitolisant]",Ki,0.3 to 5.3 nM
